From patent publication EP4741406A1, “NEUROKININ-1 RECEPTOR ANTAGONIST COMPOUND” (Creadev (Nanjing) Pharmaceutical Technology Co., Ltd., priority 2023, dated 2025)

Tested on: red blood cell suspension
Assay: In vitro human hemolysis assay
Settings: concentrations as high as 200 µM, 37 °C, 45 minutes

For `C[C@@H](OC[C@@]1(c2ccccc2)CC[C@]2(CCC(=O)N2)CN1C(=O)OCSSCCS(=O)(=O)O)c1cc(C(F)(F)F)cc(C(F)(F)F)c1` [Example 42], the hemolytic activity was “no hemolytic activity”.
